Results on two compounds are retold here after article PMC3992716 (European journal of pharmacology, 2013).

Chains of the proteins cited; added tags and fusions are not shown. Residues count along the entry.
UniProt P30532, 23-468: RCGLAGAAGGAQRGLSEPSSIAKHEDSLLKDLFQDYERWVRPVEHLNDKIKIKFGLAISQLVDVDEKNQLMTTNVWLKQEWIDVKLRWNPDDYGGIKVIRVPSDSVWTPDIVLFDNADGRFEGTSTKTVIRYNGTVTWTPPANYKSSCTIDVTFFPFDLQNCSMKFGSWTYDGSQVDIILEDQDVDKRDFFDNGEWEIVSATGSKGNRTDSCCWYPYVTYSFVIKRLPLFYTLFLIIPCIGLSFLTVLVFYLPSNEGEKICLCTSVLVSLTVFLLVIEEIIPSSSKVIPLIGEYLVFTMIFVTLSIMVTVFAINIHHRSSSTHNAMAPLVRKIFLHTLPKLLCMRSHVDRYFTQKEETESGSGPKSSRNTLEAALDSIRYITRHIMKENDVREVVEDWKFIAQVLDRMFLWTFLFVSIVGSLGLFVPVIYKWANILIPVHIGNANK
UniProt P30926, 22-498: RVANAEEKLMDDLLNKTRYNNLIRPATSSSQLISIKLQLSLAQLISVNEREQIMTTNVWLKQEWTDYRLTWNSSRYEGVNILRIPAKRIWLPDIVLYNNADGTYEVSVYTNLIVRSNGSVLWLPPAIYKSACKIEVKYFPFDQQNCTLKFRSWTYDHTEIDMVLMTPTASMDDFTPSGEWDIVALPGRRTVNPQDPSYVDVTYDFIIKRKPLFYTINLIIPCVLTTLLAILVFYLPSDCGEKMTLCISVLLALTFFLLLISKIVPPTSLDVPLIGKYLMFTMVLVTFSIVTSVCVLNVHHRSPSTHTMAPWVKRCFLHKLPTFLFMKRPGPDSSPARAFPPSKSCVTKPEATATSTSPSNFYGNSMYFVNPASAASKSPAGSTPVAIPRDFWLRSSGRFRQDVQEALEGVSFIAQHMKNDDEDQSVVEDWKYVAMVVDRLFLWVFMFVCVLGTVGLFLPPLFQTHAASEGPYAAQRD
UniProt P32297, 32-505: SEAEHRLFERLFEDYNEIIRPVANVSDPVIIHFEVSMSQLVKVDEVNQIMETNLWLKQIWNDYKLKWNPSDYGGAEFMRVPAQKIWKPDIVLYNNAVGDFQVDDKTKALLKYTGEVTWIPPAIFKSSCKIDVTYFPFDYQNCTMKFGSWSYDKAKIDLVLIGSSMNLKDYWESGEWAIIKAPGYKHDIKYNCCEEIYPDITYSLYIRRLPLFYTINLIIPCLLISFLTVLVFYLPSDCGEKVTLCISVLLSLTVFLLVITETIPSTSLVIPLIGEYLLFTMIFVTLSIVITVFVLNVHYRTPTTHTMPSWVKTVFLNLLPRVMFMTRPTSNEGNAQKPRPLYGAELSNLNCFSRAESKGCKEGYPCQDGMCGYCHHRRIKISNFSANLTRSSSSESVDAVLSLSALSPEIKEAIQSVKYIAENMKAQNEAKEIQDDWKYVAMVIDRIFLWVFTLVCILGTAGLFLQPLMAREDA

The target of the experiment is α3(2)β4(2)α5 (Homo sapiens, UniProt P30532+P30926+P32297). It counts as cell-based.

`CN[C@@]1(C)[C@@H]2CC[C@@H](C2)C1(C)C` [S(+)Mecamylamine, N-2,3,3-tetramethylbicyclo[2.2.1]heptan-2-amine] returned an IC50 of 0.89 ± 0.18 µM.

In turn, `CNC1(C)C2CCC(C2)C1(C)C` (stereo not drawn) [R(-)Mecamylamine, N-2,3,3-tetramethylbicyclo[2.2.1]heptan-2-amine] gave an IC50 of 0.6 ± 0.07 µM.
